Reference: patent publication US20230097753A1, “ALPHA-HYDROXYLATED FATTY-ACID METABOLITES, MEDICAL USES AND USE AS BIOMARKERS” (UNIVERSITAT DE LES ILLES BALEARS, priority 2020, published 2023)

What was measured:
[1] = tested on: U-118 MG cells; assay: Intracellular fatty acid levels in U-118 MG cells treated with DHA-H or HPA; assay type: in vitro ADME
Protocol: (§1) FIG. 4. A. DHA-H is a prodrug that is metabolically transformed into HPA by α-oxidation in U118 cells. The intracellular levels of DHA (black bars), DHA-H (white bars) and HPA (striped bars) are represented on the ordinate axis (nmoles/mg of protein), with respect to the treatment conditions: Control (C) and sodium salt of DHA-H 150 μM (48 h), in the presence or absence of simultaneous treatment with oxythiamine 1 and 10 mM, in the abscissa axis. […] The bars represent the mean±standard error, and the statistical analysis was performed using one-way ANOVA and the Tukey multiple evaluation test: *p<0.05 when comparing only HPA levels. B. Metabolic conversion of DHA-H to HPA is necessary for an anti-tumor effect to exist. The cell viability (% of the control -C- without oxythiamine) is represented in the ordinate axis, with respect to the treatment conditions: Control (C- black bars) and the sodium salt of DHA-H 150 μM, 48 h (white bars) in the presence and absence of simultaneous treatment with 1 mM oxythiamine, in the abscissa axis. […] The bars represent the mean±standard error, and the statistical analysis was performed using one-way ANOVA and the Tukey multiple evaluation test: *p<0.05 when compared to control (C); #p<0.05 when comparing the effect of DHA-H in the presence and absence of oxythiamine.
(§2) FIG. 5. A. Viability of U118 cells in culture after treatment with DHA-H sodium salt, DHA sodium salt, and HPA. The cell viability (% of the control without treatment) is represented in the ordinate axis, versus the different treatment conditions in the abscissa axis: Control (black bar), DHA-H sodium salt (150 μM, 48 h—white bar), DHA (150 μM, 48 h—striped bar) and HPA (150 μM, 48 h—grid bar). Treatment with HPA under the same conditions induces a much more evident degree of mortality on the culture than that induced by DHA-H (prodrug) or DHA (natural analogue). This effect could be due to a mixture of anti-proliferative effect and toxic effects typical of HPA, which would not be attributable to DHA-H or DHA under the same experimental conditions. The bars represent the mean±standard error, and the statistical analysis was performed using one-way ANOVA and the Tukey multiple evaluation test: *p<0.05 when compared to control. B. Intracellular levels of HPA in U118 cells in culture, treated with the sodium salt of DHA-H and HPA. […]
(§3) Cell survival was analyzed in a Barker chamber using trypan blue vital exclusion staining (Scharlab) or by cell proliferation kit II (Roche). […] After different times, plaque viable cells were determined by the addition of XTT according to the manufacturers instructions.

[2] = tested on: U118 cells; assay: Viability of U118 cells after DHA-H, DHA, HPA (150 μM, 48 h); assay type: cell-based, human; settings: U118-MG; for Anti-proliferative effect (cell viability): 150 μM, 48 h
Protocol: as §1, §2, §3

[3] = tested on: U-118 MG xenographic tumors; assay: U-118 MG xenographic tumors in NUDE mice treated with DHA-H or HPA; assay type: in vivo; settings: for Volume of the xenographic tumor 42 days after the start of treatment: 200 mg/kg/day oral; for Levels in xenographic tumors after DHA-H sodium salt: DHA-H sodium salt 200 mg/kg oral, 42 days
Protocol: FIG. 3. […] The levels of DHA (black bars) and HPA (white bars) (pmoles/mg of tissue) in the tumor are represented in the ordinate axis, versus the treatment condition (vehicle and DHA-H 200 mg/kg) in the abscissa axis. NUDE (immunosuppressed) mice at 3 months of age were injected subcutaneously with 7.5.10^6 U118 cells (grade IV human multiform glioblastoma). Tumor growth was allowed at the subcutaneous level for 10 days prior to initiation of oral treatments (vehicle or DHA-H sodium salt 200 mg/kg), which were maintained 42 days until sacrifice. […] B. Tumor HPA levels correlate inversely with tumor size in xenographic models. The size of the tumor (cm^3) is represented, in the ordinate axis, versus the levels of HPA (pmoles/mg of tissue) in the tumor, in the abscissa axis, for two treatment conditions: ∘ vehicle and sodium • salt of DHA-H 200 mg/kg. The presence of HPA in the tumor of animals under treatment with DHA-H sodium salt has astatistically significant linear relationship with tumor volume (A2), where: r^2=0.4296 and p=0.0029.
FIG. 7. A: Tumor growth is inhibited in vivo in the presence of treatment with HPA sodium salt or its prodrug, DHA-H, in xenographic models. The size of the tumor (cm^3) is represented in the ordinate axis, versus the days of treatment elapsed in the abscissa axis. […] After 10 days, the tumors became visible with an approximate volume of 0.1 cm^3. Animals were randomly divided into groups with a similar mean tumor volume and received daily oral treatments for 42 days: o vehicle (untreated control), DHA-H ▴ (200 mg/kg/day) and ▪ HPA (200 mg/kg/day). Tumor volumes (v) were calculated as v=A^2×L/2, where A is the width of the tumor and L is its length. The data obtained for each treatment condition were adjusted to an exponential growth curve. […] The volume of the tumors induced 42 days after the start of the treatments is represented in the ordinate axis, versus the treatment conditions in the abscissa axis. The individualised data of the animals participating in the study are represented: o carrier (untreated control), DHA-H ▴ (200 mg/kg/day) and ▪ HPA (200 mg/kg/day). The bars represent the mean±standard error for each treatment condition and the statistical analysis was performed by unidirectional ANOVA and the Tukey multiple evaluation test: *p<0.05 when compared to the control condition.
The 5xFAD model of Alzheimer's disease is a dual transgenic PS1/APP mouse that harbors five human mutations associated with familial AD (Tg6799 line): Swedish (K670N/M671L), Florida 151(1716V) and London (V717I) in APP; and clinical mutations M146L and L286V in human PS1. […]

[4] = tested on: U118 MG; assay: IC50 in tumor cell cultures (cell survival, XTT / trypan blue); assay type: cell-based; settings: U-118-MG; U118 MG human glioblastoma cell line
Protocol: Cell survival was analyzed in a Barker chamber using trypan blue vital exclusion staining (Scharlab) or by cell proliferation kit II (Roche). Briefly, the cells were seeded in 96-well plates at a density of 3 x 10^3 cells per well 24 h prior to treatment, and then cultured in the presence or absence of compounds of interest at the concentrations and for the times indicated in the figures. After different times, plaque viable cells were determined by the addition of XTT according to the manufacturers instructions. Cells were incubated at 37° C. in 5% CO2 until a constant color was developed and absorbance was recorded at 495 nm using a microplate reader with a reference wavelength of 650 nm (FLUOstar Omega, BMG LABTECH, Germany).
The anti-tumor activity of the different metabolites described in FIGS. 8 and 9 was determined by direct treatment with these molecules (HDA or C17:2 ω-6, HTA ω-3 or C17:3 ω-3, HTA ω-6 or C17:3 ω-6, NTA or C19:4 ω-6, NPA or C19:5 ω-3, and HPA or C21:5 ω-3) in tumor cell cultures, on which the IC50 value for each of these compounds was determined (Inhibitory Concentration 50: concentration of study compound that induces death of 50% of the tumor cell population).

[5] = tested on: U-251 MG glioma cells; assay: Cell viability by violet crystal staining, 72 hours; assay type: cell-based, human; settings: 72 hours
Protocol: (§4) FIG. 14. Effect of 2OHOA sodium salt, OA and C17:1n-9 sodium salt on cell viability and proliferation of glioma cells. […] Viability was determined by violet crystal staining.
(§5) In order to evaluate the antiproliferative effect of C17:1n-9, its IC50, which corresponds to the amount of a compound needed to reduce cell viability in vitro by 50%, as well as its effect on the regulation of proteins involved in the mechanism of action of 2OHOA, were determined. […] Upon completion of treatment, IC50 was determined by violet crystal staining technique. […] The IC50 of 2OHOA was 1000 μM for non-tumor cells, MRC-5 and astrocytes.

[6] = tested on: U-118 MG glioma cells; assay: as above; assay type: cell-based, human; settings: 72 hours
Protocol: as §4, §5

## CCC=CCC=CCC=CCC=CCC=CCC=CCC(O)C(=O)O (stereo not drawn) [DHA-H, 2-hydroxy-drocosahexaenoic acid]
[1]; U118, 150 μM DHA-H sodium salt, 48 h
  HPA treatment concentration generating equivalent intracellular HPA levels: 5 µM
[1]; U-118 MG, DHA-H
  Endogenous levels of DHA after treatment: no effect
[1]; U-118 MG, DHA-H 150 μM, 48 h
  HPA levels after addition of DHA-H: significant increase in HPA levels
[2]
  Anti-proliferative effect (cell viability): significant anti-proliferative effect
[2]; DHA-H 150 μM 48 h with 1 mM oxythiamine
  Anti-proliferative effect in the presence of oxythiamine: partially reversed
[3]
  Volume of the xenographic tumor 42 days after the start of treatment: reduce the volume of the xenographic tumor significantly
  Levels in xenographic tumors after DHA-H sodium salt: undetectable levels

## CCCCC/C=C\C/C=C\CCCCCCC(=O)O [HDA, (8Z,11Z)-heptadeca-8,11-dienoic acid]
[4]
  IC50: 144 ± 32 µM

## CC/C=C\C/C=C\C/C=C\C/C=C\C/C=C\CCCCC(=O)O [HPA, (6Z,9Z,12Z,15Z,18Z)-heneicosa-6,9,12,15,18-pentaenoic acid]
[4]
  IC50: 124 ± 16 µM
[2]
  Anti-proliferative effect (cell viability): much higher
[3]
  Volume of the xenographic tumor 42 days after the start of treatment: reduce the volume of the xenographic tumor significantly
  Levels in xenographic tumors after DHA-H sodium salt: tumor accumulation

## CC/C=C\C/C=C\C/C=C\CCCCCCC(=O)O [HTA n-3, (8Z,11Z,14Z)-heptadeca-8,11,14-trienoic acid]
[4]
  IC50: 129 ± 3 µM

## CCCCC/C=C\C/C=C\C/C=C\CCCC(=O)O [HTA n-6, (5Z,8Z,11Z)-heptadeca-5,8,11-trienoic acid]
[4]
  IC50: 235 ± 26 µM

## CC/C=C\C/C=C\C/C=C\C/C=C\C/C=C\CCC(=O)O [NPA, (4Z,7Z,10Z,13Z,16Z)-nonadeca-4,7,10,13,16-pentaenoic acid]
[4]
  IC50: 90 ± 9 µM

## CCCCC/C=C\C/C=C\C/C=C\C/C=C\CCC(=O)O [NTA, (4Z,7Z,10Z,13Z)-nonadeca-4,7,10,13-tetraenoic acid]
[4]
  IC50: 113 ± 13 µM

## CCCCCCCC/C=C\CCCCCCCC(=O)[O-].[Na+] [OA, reference compound]
[5]
  IC50: 237 ± 6.52 µM
[6]
  IC50: 226 ± 7.3 µM
